Assays:
[1] = test system: SD rat; settings: male SD rat, tail tip in water bath of 55° C., by gavage, 1 hour after administration, bliss method
[2] = test system: SD rats; test: Evaluation of drug dependence by rat place preference test; settings: male SD rats, 3×ED50 dose (hot plate method) by gavage, once a day for 9 days, measured on 10th day within 15 minutes

Row | SMILES | ED50 [1] | Residence time in drug-side box (Mean ± S, s) [2]
1 | [2H]C([2H])(C1CC1)N1CC[C@]23c4c5ccc(OC)c4O[C@H]2[C@@]2(OC)CC[C@@]3(C[C@@H]2[C@](C)(O)C(C)(C)CC)[C@H]1C5 | 2.98 ± 1.20 mg/kg | 134.52 ± 32.24 s
2 | CCC(C)(C)[C@@](C)(O)[C@H]1C[C@@]23CC[C@]1(OC)[C@@H]1Oc4c(O)ccc5c4[C@@]12CCN(CC1CC1)[C@@H]3C5 | 8.06 ± 7.32 mg/kg | 240.23 ± 157.71 s
3 | [2H]C([2H])([2H])Oc1ccc2c3c1OC1[C@@]4(OC)CC[C@@]5(C[C@@H]4[C@](C)(O)C(C)(C)C)[C@@H](C2)N(C([2H])([2H])C2CC2)CC[C@]315 (some centres unmarked) | >50 mg/kg | –
4 | [2H]C([2H])([2H])Oc1ccc2c3c1O[C@H]1[C@@]4(OC)CC[C@@]5(C[C@@H]4[C@](C)(O)C(C)(C)CC)[C@@H](C2)N(CC2CC2)CC[C@]315 | 13.73 ± 9.95 mg/kg | –
5 | [2H]C([2H])(C1CC1)N1CC[C@]23c4c5ccc(O)c4O[C@H]2[C@@]2(OC)CC[C@@]3(C[C@@H]2[C@](C)(O)C(C)(C)CC)[C@H]1C5 | 4.01 ± 2.21 mg/kg | 121.58 ± 33.98 s
6 | [2H]C([2H])([2H])Oc1ccc2c3c1O[C@H]1[C@@]4(OC)CC[C@@]5(C[C@@H]4[C@](C)(O)C(C)(C)CC)[C@@H](C2)N(C([2H])([2H])C2CC2)CC[C@]315 | 14.05 ± 8.20 mg/kg | –
7 | [2H]C([2H])([2H])Oc1ccc2c3c1OC1[C@@]4(OC)CC[C@@]5(C[C@@H]4[C@](C)(O)C(C)(C)C)[C@@H](C2)N(CC2CC2)CC[C@]315 (some centres unmarked) | >50 mg/kg | –
8 | [2H]C([2H])(C1CC1)N1CC[C@]23c4c5ccc(OC)c4O[C@H]2[C@@]2(OC)CC[C@@]3(C[C@@H]2[C@](C)(O)C(C)(C)C)[C@H]1C5 | 14.52 ± 4.25 mg/kg | 137.77 ± 28.75 s
9 | [2H]c1c([2H])c2c3c(c1O)O[C@H]1[C@@]4(OC)CC[C@@]5(C[C@@H]4[C@](C)(O)C(C)(C)CC)[C@@H](C2)N(CC2CC2)CC[C@]315 | 6.53 ± 5.20 mg/kg | 282.49 ± 196.72 s
